Assay results taken from ChEMBL document CHEMBL2062388, “Integrated virtual screening for the identification of novel and selective peroxisome proliferator-activated receptor (PPAR) scaffolds” (J Med Chem, 2012).

Biological target: T1, Peroxisome proliferator-activated receptor alpha (Homo sapiens) (UniProt Q07869)
T1 sequence (whole entry): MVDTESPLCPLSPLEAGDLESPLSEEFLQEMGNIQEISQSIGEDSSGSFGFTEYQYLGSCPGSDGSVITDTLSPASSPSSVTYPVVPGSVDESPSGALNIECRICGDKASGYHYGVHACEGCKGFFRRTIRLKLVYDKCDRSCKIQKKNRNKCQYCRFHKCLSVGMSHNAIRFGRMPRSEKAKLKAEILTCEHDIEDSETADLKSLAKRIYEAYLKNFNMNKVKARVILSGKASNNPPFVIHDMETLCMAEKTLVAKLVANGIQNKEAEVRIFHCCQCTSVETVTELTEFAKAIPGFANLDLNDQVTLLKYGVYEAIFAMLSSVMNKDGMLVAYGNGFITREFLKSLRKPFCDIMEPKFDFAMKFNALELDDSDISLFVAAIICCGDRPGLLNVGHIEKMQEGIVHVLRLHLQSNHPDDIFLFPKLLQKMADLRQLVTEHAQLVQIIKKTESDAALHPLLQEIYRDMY
Assay: Displacement of pan-PPAR fluormone from PPARalpha LBD at >= 100 uM by TR-FRET based LanthaScreen assay

O=C1NC(=S)NC(=O)C1=Cc1ccc(OCc2ccccc2)c(Cl)c1
inhibition: inactive

Calls of active or inactive are those of the source. The rule behind the calls is not given here.
